This note sets out measurements from paper PMC3108484 (Frontiers in Pharmacology, 2011).

Sequences of proteins named here, by UniProt entry; tags and fusion partners are left off. A change or cut given only in a name is not applied to a line headed by its entry.
UniProt O70528: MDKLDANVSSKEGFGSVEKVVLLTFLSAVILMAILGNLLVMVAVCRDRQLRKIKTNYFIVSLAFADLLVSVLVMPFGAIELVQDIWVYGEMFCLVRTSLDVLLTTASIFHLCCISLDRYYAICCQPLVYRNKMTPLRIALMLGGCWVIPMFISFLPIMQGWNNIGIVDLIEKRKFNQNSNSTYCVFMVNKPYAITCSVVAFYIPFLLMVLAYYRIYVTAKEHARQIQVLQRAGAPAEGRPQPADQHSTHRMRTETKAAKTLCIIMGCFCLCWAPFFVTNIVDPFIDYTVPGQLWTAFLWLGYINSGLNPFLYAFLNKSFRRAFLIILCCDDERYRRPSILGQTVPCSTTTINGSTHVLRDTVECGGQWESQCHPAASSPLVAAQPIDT

The experiment concerns the target 5-HT4 receptor (Cavia porcellus, UniProt O70528). As to the kind of experiment: Guinea pig colonic longitudinal muscle/myenteric plexus. The note with it: isolated tissue, % of primed 5-HT (0.3 μM) maximum.

As to `COCCCN1CCC(NC(=O)c2cc(Cl)c(N)c3c2OCC3)CC1` [Prucalopride, prucalopride], the “Guinea pig colonic LMMP contractile activity IA (mean % 5-HT max ± SEM)” value was 81 ± 2 % 5-HT max. For the same compound, the “Guinea pig colonic LMMP contractile activity IA (mean % 5-HT max ± SEM)” value (listed as prucalopride) was 81 % 5-HT max.
